The chains behind the UniProt entries cited, without tags or fusion partners. A line that says so, or that is headed by a name, gives the form on record, which may keep a tag or linker.
UniProt P03372, whole entry E203W/Q214A/H216G/G400V: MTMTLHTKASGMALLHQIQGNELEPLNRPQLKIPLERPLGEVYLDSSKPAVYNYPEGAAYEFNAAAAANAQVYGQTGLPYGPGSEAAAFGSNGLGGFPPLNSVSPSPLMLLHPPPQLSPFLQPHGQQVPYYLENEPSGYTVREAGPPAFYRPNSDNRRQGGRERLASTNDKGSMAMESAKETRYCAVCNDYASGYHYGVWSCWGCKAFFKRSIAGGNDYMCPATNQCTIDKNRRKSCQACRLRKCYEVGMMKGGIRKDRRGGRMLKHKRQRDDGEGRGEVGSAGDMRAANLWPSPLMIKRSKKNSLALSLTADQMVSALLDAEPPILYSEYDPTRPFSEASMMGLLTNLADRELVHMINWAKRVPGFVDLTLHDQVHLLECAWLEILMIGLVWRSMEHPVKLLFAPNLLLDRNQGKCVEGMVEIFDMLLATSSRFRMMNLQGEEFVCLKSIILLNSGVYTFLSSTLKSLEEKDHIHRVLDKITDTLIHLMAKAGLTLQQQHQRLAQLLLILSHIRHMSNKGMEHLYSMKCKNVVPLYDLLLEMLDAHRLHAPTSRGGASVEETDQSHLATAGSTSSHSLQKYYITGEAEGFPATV
C-79 (Homo sapiens, UniProt P03372, E203W/H216G/Q214A), UniProt P03372, with tags, fused parts or gaps E203W/Q214A/H216G: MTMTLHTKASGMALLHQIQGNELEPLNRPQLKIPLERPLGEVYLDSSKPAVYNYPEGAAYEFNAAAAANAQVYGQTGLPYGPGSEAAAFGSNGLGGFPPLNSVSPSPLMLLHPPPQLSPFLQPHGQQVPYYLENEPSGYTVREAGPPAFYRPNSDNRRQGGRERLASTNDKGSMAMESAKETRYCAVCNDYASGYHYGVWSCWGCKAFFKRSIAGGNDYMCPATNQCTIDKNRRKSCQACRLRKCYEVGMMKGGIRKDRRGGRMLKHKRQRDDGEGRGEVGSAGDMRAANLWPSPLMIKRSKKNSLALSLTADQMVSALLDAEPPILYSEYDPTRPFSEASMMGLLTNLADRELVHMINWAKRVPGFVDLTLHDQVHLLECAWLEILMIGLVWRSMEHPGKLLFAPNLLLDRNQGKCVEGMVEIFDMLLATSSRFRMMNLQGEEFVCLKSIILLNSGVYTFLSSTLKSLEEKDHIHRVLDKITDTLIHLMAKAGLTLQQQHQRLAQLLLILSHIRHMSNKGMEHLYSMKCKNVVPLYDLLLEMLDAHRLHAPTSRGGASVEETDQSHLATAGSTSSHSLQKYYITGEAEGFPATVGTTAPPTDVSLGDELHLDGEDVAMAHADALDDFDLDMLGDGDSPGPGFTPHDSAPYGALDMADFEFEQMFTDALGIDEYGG
UniProt P03372, whole entry E203W/Q214V/G215R/H216P/N217T/G400V: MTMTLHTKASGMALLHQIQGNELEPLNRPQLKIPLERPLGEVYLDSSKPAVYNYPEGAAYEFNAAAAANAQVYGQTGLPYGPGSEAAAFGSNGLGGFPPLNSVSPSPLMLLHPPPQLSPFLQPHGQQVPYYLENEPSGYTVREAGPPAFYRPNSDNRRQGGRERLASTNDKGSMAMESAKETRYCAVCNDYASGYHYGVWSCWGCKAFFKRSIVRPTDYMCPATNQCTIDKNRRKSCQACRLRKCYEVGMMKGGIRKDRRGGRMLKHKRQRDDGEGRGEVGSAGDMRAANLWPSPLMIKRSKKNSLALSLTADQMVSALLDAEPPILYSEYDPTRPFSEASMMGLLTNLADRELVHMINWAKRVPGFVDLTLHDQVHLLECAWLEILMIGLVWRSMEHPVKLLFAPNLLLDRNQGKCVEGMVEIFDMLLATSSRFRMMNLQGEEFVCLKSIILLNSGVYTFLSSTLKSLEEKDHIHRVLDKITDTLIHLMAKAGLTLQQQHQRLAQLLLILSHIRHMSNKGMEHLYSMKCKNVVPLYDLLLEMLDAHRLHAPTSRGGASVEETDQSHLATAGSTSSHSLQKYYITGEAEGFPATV
N-129 (Homo sapiens, UniProt P03372, E203W/H216G/Q214A), UniProt P03372, with tags, fused parts or gaps E203W/Q214A/H216G: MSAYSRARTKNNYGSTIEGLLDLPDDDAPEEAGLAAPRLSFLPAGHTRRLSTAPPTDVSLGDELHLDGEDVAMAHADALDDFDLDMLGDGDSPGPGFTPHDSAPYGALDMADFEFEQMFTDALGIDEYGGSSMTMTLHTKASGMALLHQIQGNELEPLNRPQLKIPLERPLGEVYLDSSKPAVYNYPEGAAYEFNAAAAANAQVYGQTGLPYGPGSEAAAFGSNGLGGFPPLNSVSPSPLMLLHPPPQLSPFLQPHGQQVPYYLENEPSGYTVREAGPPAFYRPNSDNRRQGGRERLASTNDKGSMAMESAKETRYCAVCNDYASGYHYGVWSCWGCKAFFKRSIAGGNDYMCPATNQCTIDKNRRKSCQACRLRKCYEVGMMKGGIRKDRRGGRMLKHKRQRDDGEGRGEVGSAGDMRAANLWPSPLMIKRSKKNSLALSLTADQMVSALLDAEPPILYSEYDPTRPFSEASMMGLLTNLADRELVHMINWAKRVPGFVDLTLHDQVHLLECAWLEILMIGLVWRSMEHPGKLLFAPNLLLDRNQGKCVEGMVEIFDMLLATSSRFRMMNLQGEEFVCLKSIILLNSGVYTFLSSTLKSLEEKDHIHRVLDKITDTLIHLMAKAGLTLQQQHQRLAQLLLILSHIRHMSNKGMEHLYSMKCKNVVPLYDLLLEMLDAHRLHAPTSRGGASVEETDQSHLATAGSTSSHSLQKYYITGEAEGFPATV

In US7153685B2 (The Board of Trustees of the University of Illinois, priority 2002, dated 2006):

What was measured:
ER3M = ER3M (Homo sapiens, UniProt P03372, E203W/G400V/H216G/Q214A); conditions: ATL4/PAL-LUC, 10 nM OHT
C-79 = C-79 (Homo sapiens, UniProt P03372, E203W/H216G/Q214A); conditions: ATL8/PAL-LUC, 4 ng expression plasmid, 10 nM OHT
Excerpt: These fragments were digested with KpnI and BamHI and then purified from agarose gels. […] To create C-129, this ER fragment was digested with XbaI and KpnI and then cloned together with the DNA fragment containing 129 amino acids of VP16 into 5.9 kb vector generated by digestion of CMV-hER with XbaI and BamHI. The same strategy was adopted to create C-79 using the DNA fragment containing 79 amino acids of VP16. Therefore, the expression of these chimeras is driven by the same CMV promoter as that of ER-3M. […] The amplified PCR product was digested with NcoI and NotI. […] This fragment and the NcoI/NotI PCR fragment were then inserted together into the 4.3 kb vector, pGL3-ATL8/PAL-LUC, which was created by digesting ATL8/PAL-LUC completely with NcoI and partially with XbaI so that the luciferase gene was replaced by N-79.

ER 4.3 = ER 4.3 (Homo sapiens, UniProt P03372, E203W/G215R/G400V/H216P/N217T/Q214V); conditions: ATL4/PAL-LUC, 10 nM OHT
N-129 = N-129 (Homo sapiens, UniProt P03372, E203W/H216G/Q214A); conditions: ATL8/PAL-LUC, 4 ng expression plasmid, 10 nM OHT

With 4-hydroxytamoxifen [OHT] the “fold induction by OHT” value (ER3M) was “greater than 80 fold”, the “fold induction by OHT” value (C-79) was “less than three” and the “fold induction by OHT” value (ER 4.3) was “greater than 80 fold”. The “fold induction by OHT” value (N-129) was 13.8 fold.
